Assay results: ChEMBL document CHEMBL1138974 (Bioorg Med Chem Lett, 2006)

Experiments:
Nociceptin receptor = Nociceptin receptor (Homo sapiens, UniProt P41146); assay: Displacement of [3H]NOP from human NOP receptors expressed in HEK293 cells; format: cell-based
Mu-type opioid receptor = Mu-type opioid receptor (Homo sapiens, UniProt P35372); assay: Displacement of [3H]naloxone from human mu opioid receptor expressed in BHK cells

## O=C1NCN(c2ccccc2)C12CCN(C1CCCCC1(O)c1ccccc1)CC2 (configuration not stated)
Nociceptin receptor
  IC50: 15 µM
Mu-type opioid receptor
  IC50: 2.7 µM
